Earlier results in patent US8883847B2, “Compositions and methods of treatment using modulators of motoneuron diseases” (KineMed, Inc., priority 2006, dated 2014).

System: ALS SOD1 G93A mouse
Settings: SOD1-G93A TGN mouse; cited from earlier work

Nc1nc2ccc(OC(F)(F)F)cc2s1 [Riluzole]
delay of disease onset and mortality: 20 to 30 days
